According to ChEMBL document CHEMBL1145512, “Three classes of glucocerebrosidase inhibitors identified by quantitative high-throughput screening are chaperone leads for Gaucher disease” (Proc Natl Acad Sci U S A, 2007):
pIC50, pKi: −log10 of the molar value.

Legend:
[1] = molecular target: T1, Lysosomal acid glucosylceramidase (Homo sapiens, UniProt P04062); assay: Inhibition of recombinant wild-type glucocerebrosidase
T1 sequence (P04062 whole entry): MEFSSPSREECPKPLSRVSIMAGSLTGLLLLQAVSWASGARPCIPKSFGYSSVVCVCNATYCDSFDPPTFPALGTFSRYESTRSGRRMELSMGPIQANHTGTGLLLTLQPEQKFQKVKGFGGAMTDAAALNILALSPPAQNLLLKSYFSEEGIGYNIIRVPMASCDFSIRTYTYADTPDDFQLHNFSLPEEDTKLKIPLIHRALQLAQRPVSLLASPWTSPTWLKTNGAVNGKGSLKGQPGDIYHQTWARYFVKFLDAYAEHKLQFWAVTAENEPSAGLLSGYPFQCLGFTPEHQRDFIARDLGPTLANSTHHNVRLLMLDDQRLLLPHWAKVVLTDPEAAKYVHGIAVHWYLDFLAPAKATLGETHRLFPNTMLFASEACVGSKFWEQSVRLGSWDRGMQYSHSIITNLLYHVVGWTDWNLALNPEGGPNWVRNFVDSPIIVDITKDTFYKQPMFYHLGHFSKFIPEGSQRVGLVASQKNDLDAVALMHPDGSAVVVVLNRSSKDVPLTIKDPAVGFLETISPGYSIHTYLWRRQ

[2] = molecular target: T1, Lysosomal acid glucosylceramidase; assay: Effect on recombinant wild-type glucocerebrosidase

Row | pIC50 [1] | pKi [1] | SMILES | AC50 [2] [nM]
1 | 6.37 | 6.49 | COc1ccc(Cl)cc1Nc1nc(NCCO)nc(N2CCCC2)n1 | 870
2 | 7.51 | 7.68 | Cc1cc(N2CCOCC2)nc2ccc(NC(=O)C3CCCCC3)cc12 | 

Row | SMILES | pIC50 [1] | pKi [1] | AC50 [2] [nM]
3 | CCc1nnc(NC(=O)c2ccc(NS(=O)(=O)c3ccccc3)cc2)s1 | 6.99 | 7.28 | 70
